## AlphaSeq binding of Ab-14 heavy chain variants to a spike HR2 peptide

Data: MIT Lincoln Laboratory AlphaSeq set, Li et al. 2023, doi:10.1038/s41467-023-39022-2, as distributed in FLAb.

All variants were tested on one target, the spike HR2 peptide PDVDLGDISGINAS (SARS-CoV-2).

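The starting antibody came from a phage panning campaign against this peptide. The variants were designed computationally from a first round of random CDR variants and then made and measured. Group labels follow the data file (Ctrl: baseline library sampled from a position-specific scoring matrix, with some repeated check sequences; GPLM: also part of the Gaussian process libraries; Gen: genetic algorithm; a sequence that several methods proposed may carry one label only). AlphaSeq pools MATa yeast showing the antibodies with MATalpha yeast showing the peptide. The frequency of each diploid, read from paired DNA barcodes, reflects how well the two displayed proteins bind. The ratio of observed to expected reads was calibrated, replicate by replicate, on BCL2-family standards whose Kd was known from biolayer interferometry. There are six technical replicates.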

Ab-14 is the parent antibody, in scFv form: VH, then a 15-residue (Gly4Ser)3 linker, then VL. The light chain is unchanged in all variants.
VH: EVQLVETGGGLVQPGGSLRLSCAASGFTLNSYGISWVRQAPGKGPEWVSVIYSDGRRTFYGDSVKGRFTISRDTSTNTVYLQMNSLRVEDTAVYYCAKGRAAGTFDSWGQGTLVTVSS
VL: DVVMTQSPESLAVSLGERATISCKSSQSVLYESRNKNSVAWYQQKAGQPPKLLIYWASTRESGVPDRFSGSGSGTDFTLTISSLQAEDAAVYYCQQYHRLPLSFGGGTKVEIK

The parent's heavy chain CDRs are GFTLNSYGIS, VIYSDGRRTFYGDSVK, GRAAGTFDS; each variant's own CDRs replace them letter for letter.
The read-out is the apparent dissociation constant on a log10 scale (nM): the lower, the stronger.
A pair that was not seen in that replicate is written "ND"; this usually means weak binding, but a binder can also be missed.
In the paper, a design with two or fewer of six values counts as a poor binder.
Values of this round are not directly comparable with the first-round values of the same sequences.
Of ten entries with the parent sequence, four were seen in most replicates (averages 0.34 to 2.37), three in one and three in none, so single entries are noisy.
A sequence that the file lists under several names has all its replicates listed entry by entry, parted by semicolons.
Nonspecific signal, from three strains lacking the peptide, appeared in 1% of pairings of all heavy chain designs, centred on 2.08 (5% of these signals below 0.84); values are not corrected for it. For each scFv, signals with the empty controls are counted beside the result, with their mean in brackets.

| CDR-H1 | CDR-H2 | CDR-H3 | group | log10 Kd, replicates | control signals |
|---|---|---|---|---|---|
| GFDLNNYGVS | HIYSDGRRTFYGDEVK | GRAAGTFDS | Ctrl | ND / ND / ND / ND / ND / ND | 1 of 18 (2.46) |
| GFTLNSYGIS | VIPSDGYRTFYLDSVK | GRAAFTFDS | Ctrl | ND / ND / ND / ND / ND / ND | 0 of 18 |
| GFTLNEYGIS | VIYSDGRRTFYGDSVK | GEAAGTFDS | Ctrl | 0.61 / 0.43 / 0.36 / 0.38 / 0.66 / 0.58 | 0 of 18 |
| GFDLNSYGIS | VIYSDGRRTFYGDSVK | GRAAGTFCS | Ctrl | ND / ND / ND / ND / ND / ND | 0 of 18 |
| GFTLNSYGIS | VIYSDGRRTFYGDSVK | GELAGTFDM | Ctrl | 1.89 / 2.01 / 1.63 / 1.19 / 2.46 / 2.48 | 0 of 18 |
| GTTLNEYGIS | VIYSDGRRTFYGDSVK | GRAAGTFDS | Ctrl | ND / 0.93 / 2.12 / 2.38 / 2.74 / ND | 0 of 18 |
| GFTLNSYGIS | VIYSDGRRTFYDPSVK | GRAAGTFFS | Ctrl | 0.25 / -0.08 / 0.13 / -0.37 / 0.39 / 0.00 | 1 of 18 (1.15) |
| GFTLNSYGIS | VIYSDGFRVFIGDSVK | GRAAGTFDS | Ctrl | ND / ND / ND / ND / ND / ND | 0 of 18 |
| GFTLSEYGIS | VIYSDGRRTFYGDSVK | GRAALTFDS | Ctrl | ND / ND / 2.35 / ND / ND / ND | 0 of 18 |
| GFTLNSQGIS | VIYSDGRRTFYTDSVK | GRAAGTFDS | Ctrl | ND / 1.15 / ND / 0.11 / ND / ND | 0 of 18 |
| GFTLNSYGIS | VIYSDGRRTFYGDSVK | GRAAGTFLW | Ctrl | ND / ND / ND / ND / ND / ND | 0 of 18 |
| GFTLDSYGIS | VIYSDGRRTFYGDSVK | GRIAGVFDS | Ctrl | 1.40 / 2.03 / 1.07 / 0.70 / 0.86 / 1.21 | 1 of 18 (1.38) |
| GFTLNSYGIS | VIYSDGRRTFYGDSVK | GRARGTFDS | Ctrl | ND / ND / 1.85 / ND / ND / ND | 0 of 18 |
| GFTLNSYGIS | VIYADGRRTFYIDSVK | GTAMGTFDS | Ctrl | ND / ND / ND / ND / ND / ND | 0 of 18 |
| GFTLNMYGIS | VIYSDGRRTFYGDSVK | TWAAGVGDS | Ctrl | ND / ND / ND / ND / ND / ND | 0 of 18 |
| GFTLNSYGIS | VIYSDGRRTFYGDSVV | GRATGTFDS | Ctrl | ND / ND / ND / ND / 1.76 / ND | 0 of 18 |
| GFTLTSYGIT | VIYSDGRRTFYGDSVK | GRAHGTFDS | Ctrl | ND / ND / ND / ND / ND / ND | 0 of 18 |
| GFTLNSYGIS | VIYSDGRRTFYGDSVK | GYAAGTFDL | Ctrl | ND / 1.49 / ND / 1.58 / 0.89 / 1.09 | 1 of 18 (1.42) |
| KFTLNSYGIS | VIYSDGMRTFYGDSVK | GRAAGTFDS | Ctrl | ND / ND / ND / ND / ND / ND | 0 of 18 |
| GFALNSYGIS | VIYSDGRRTFYGDDVK | GRAAGRFDS | Ctrl | ND / ND / ND / ND / ND / ND | 0 of 18 |
| GFTLNSYGIS | VIYSDGRRTFYGDSVK | GRAAGTKDQ | Ctrl | ND / ND / ND / ND / ND / ND | 0 of 18 |
| GFDLNSYGIS | VIYSDGRRTGYGDSVK | GRAAGTFDS | Ctrl | 0.34 / 0.45 / 0.50 / -0.03 / 0.00 / 1.22 | 0 of 18 |
| GFTLNSYGIS | VIYSDGRRTFYGDSVK | HDAAGTPDS | Ctrl | ND / ND / ND / 3.43 / ND / ND | 0 of 18 |
| GFNLNSYGIS | VIYSDGVRTFYGDSVK | GRAAGTFDQ | Ctrl | ND / ND / 2.11 / 1.62 / 0.97 / 2.83 | 0 of 18 |
| GFTLNEYGIS | VIYSDGRRTFYGDSVK | GRQAGTFDS | Ctrl+GPLM_Gen | -0.10 / -0.31 / -0.24 / 0.04 / -0.12 / 0.08; 0.30 / 0.08 / 0.02 / 0.32 / 0.06 / 0.30 | 1 of 36 (1.51) |
| GFTLESYGIS | VIYSDGRRTFYGDSVE | GDASGTFDS | Ctrl | ND / ND / ND / ND / ND / ND | 0 of 18 |
| GFTLNSYGIS | VIYSDGRRTFYNDSVK | GRAAGTFDS | Ctrl | ND / ND / ND / 0.97 / ND / ND | 0 of 18 |
| GFTLNSYGIS | VIYSDGRRTFYGDSVK | GKATQTFDS | Ctrl | ND / ND / ND / ND / ND / ND | 1 of 18 (2.88) |
| GFNLNDYGIS | VIYSDGKRTFYGDSVK | GREAATFDS | Ctrl | ND / ND / ND / ND / ND / ND | 0 of 18 |
| GFTLNSYGIS | VIYSDGRRTFYHDSVK | GRNQGTFDS | Ctrl | ND / ND / ND / ND / ND / ND | 0 of 18 |
| GFALNSYGIS | VIYADGRRTFYGDSVK | GRAAGTFDS | Ctrl | -0.24 / -0.37 / -0.12 / -0.24 / -0.36 / 0.11 | 1 of 18 (3.07) |
| HFTLNSYGIS | VIYSDGRRTFYGDSVK | GRAAGTFDS | Ctrl | ND / ND / ND / 1.90 / ND / ND | 1 of 18 (2.44) |
| GFTLNSHGIS | VIYSDGRRTFYGDSVK | GRAAGCDDS | Ctrl | ND / ND / ND / ND / ND / ND | 0 of 18 |
| GFTLNSYGIS | VIYSDGRRTAYADSVK | GRIAGTFDS | Ctrl | 0.08 / -0.07 / -0.34 / -0.48 / 0.06 / -0.03 | 1 of 18 (2.18) |
| GFTLNSYGIS | VIYSDGRRTFYGDDVK | GRNAGTFDS | Ctrl | ND / 1.37 / ND / ND / 3.13 / 1.43 | 0 of 18 |
| GFSLNSYGIS | VIYSDGRRTFYGDSVK | GRAAGVFDS | Ctrl | ND / ND / ND / 1.05 / ND / ND | 0 of 18 |
| GFTLNSYGIS | VIYSDGRRTAYEDSVK | GRAGGTFVS | Ctrl | ND / ND / ND / ND / ND / ND | 1 of 18 (1.78) |
| GFTLNSYGIS | VIYSDGRRTFYGDSVK | GRAAWHFES | Ctrl | ND / ND / ND / ND / ND / ND | 0 of 18 |
| NFTLNSYGIS | VIYSDGRRTFYGDSVK | GRAAGTFDV | Ctrl | ND / ND / ND / ND / ND / ND | 0 of 18 |
| GFTLNSYGIS | VIYSDGRRTFYGDEFK | GRAAGTFDS | Ctrl | 1.51 / 2.60 / 1.41 / 1.90 / 2.18 / 1.98 | 0 of 18 |
| GFPLEDYGIS | VIYSDGRRTFYGDSVK | GRAAATDKS | Ctrl | ND / ND / ND / ND / ND / ND | 0 of 18 |
| GFTLDSYGIS | VIYSDGRRTFYGDSVK | GNAAGTIDS | Ctrl | ND / ND / ND / ND / ND / ND | 0 of 18 |
| GFTLNSYGIS | VIYSDGRRTFYGDSVK | GRATGTFDS | Ctrl | ND / ND / ND / ND / ND / ND | 0 of 18 |
| GFTLRSYGIS | VIYSDGRRTWYGDSVR | GHAAGTFDD | Ctrl | ND / ND / ND / ND / ND / ND | 0 of 18 |
| GFTLNSYGIS | VIYADGRRTFYGDQVK | GGHAGSFDS | Ctrl | ND / ND / ND / ND / ND / 0.76 | 0 of 18 |
| GETLNSYGIS | VIYSDGRRTFYGDSVE | GRQAGTFSS | Ctrl | ND / ND / ND / ND / ND / ND | 0 of 18 |
| GFTLNDYGIS | VIYADGRRTRYQDSVK | GRDAGTFDS | Ctrl | 0.60 / 0.17 / 0.49 / 0.68 / 1.35 / 0.18 | 0 of 18 |
| GFTLNSYGIS | VIPSDGERTFYGDSVR | GRHAGTFDS | Ctrl | ND / ND / ND / ND / ND / ND | 0 of 18 |
| GFTLNSYGIS | VIYSDGRRTMMGDSVK | GRAAGTFDS | Ctrl | ND / ND / ND / ND / ND / ND | 0 of 18 |
| GFDLNSYGIS | VIYSDGRRTFYGDSVK | SRYAGTFDS | Ctrl | ND / ND / ND / ND / ND / ND | 0 of 18 |

The first 3 variants above that were never detected:

CDR-H1,CDR-H2,CDR-H3,group,"log10 Kd, replicates",control signals
GFDLNNYGVS,HIYSDGRRTFYGDEVK,GRAAGTFDS,Ctrl,ND / ND / ND / ND / ND / ND,1 of 18 (2.46)
GFTLNSYGIS,VIPSDGYRTFYLDSVK,GRAAFTFDS,Ctrl,ND / ND / ND / ND / ND / ND,0 of 18
GFDLNSYGIS,VIYSDGRRTFYGDSVK,GRAAGTFCS,Ctrl,ND / ND / ND / ND / ND / ND,0 of 18